# Experimental data reported in ChEMBL document CHEMBL1136605, “Synthesis and biological activities of novel beta-carbolines as PDE5 inhibitors” (Bioorg Med Chem Lett, 2003).
# Target: cGMP-specific 3',5'-cyclic phosphodiesterase (Homo sapiens, UniProt O76074)
# Assay: Inhibitory activity against PDE5 from human corpus cavernosum
structure (smiles),measurement,value
Cc1ncc(-c2cnc(N3CCc4c([nH]c5ccccc45)C3c3ccc4c(c3)CCO4)nc2)n1C (stereo unspecified),Ki,24 nM
